Drawing on patent US20220089743A1, this text covers Kd for ten substances.

Test in all cases: SPR, Ab captured, 37 C
Assay [1] concerns the target recombinant HLA-DQ2.5/33 mer gliadin peptide complex (human; wheat).
Assay [2] addresses recombinant HLA-DQ2.5/BC Hordein peptide complex (human; barley).
Assay [3] deals with recombinant HLA-DQ2.5/gamma 2 gliadin peptide complex (human; wheat).

Take “DQN0344H0976/L0591//DQN0385H1270/L0722-F6 (bispecific antibody)”: the figures for the Kd in assay [1], in assay [2] and in assay [3] were 3.5 nM, 6.06 nM and 8.39 nM, respectively.

Take “DQN0344H1013/L0620//DQN0385H1270/L0681-F6 (bispecific antibody)”: the Kd in assay [1] came out at 4.02 nM; in assay [2], 6.67 nM; in assay [3] it was 8.22 nM.

Consider “DQN0344H0976/L0591//DQN0385H1352/L0681-F6 (bispecific antibody)”, for which the figures for the Kd in assay [1], in assay [2] and in assay [3] were 3.35 nM, 6.57 nM and 9.37 nM, respectively.

With “DQN0344H1013/L0620//DQN0385H1352/L0681-F6 (bispecific antibody)”, the Kd is 3.93 nM in assay [1], 6.06 nM in assay [2] and 9.69 nM in assay [3].

Consider “DQN0344H1013/L0620//DQN0385H1270/L0722-F6 (bispecific antibody)”, for which the Kd in assay [1] came out at 4.09 nM; in assay [2], 6.53 nM; in assay [3], 8.54 nM.

Turning to “DQN0344H1013/L0620//DQN0385H1353/L0681-F6 (bispecific antibody)”, the Kd worked out at 3.69 nM in assay [1], 5.71 nM in assay [2] and 7.36 nM in assay [3].

On to “DQN0344H0976/L0591//DQN0385H1527/L0605-F6 (bispecific antibody)”, for which the Kd was 3.48 nM in assay [1], 7.46 nM in assay [2] and 14.6 nM in assay [3].

For the substance “DQN0344H0976/L0591//DQN0385H1270/L0681-F6 (bispecific antibody)”, the Kd in assay [1] worked out at 3.46 nM; in assay [2], 6.52 nM; in assay [3], 8.06 nM.

On to “DQN0344H1013/L0620//DQN0385H1521/L0605-F6 (bispecific antibody)”, for which the values for the Kd in assay [1], in assay [2] and in assay [3] were 4.08 nM, 8.59 nM and 19 nM, respectively.

With “DQN0344H0976/L0591//DQN0385H1255/L0605-F6 (bispecific antibody)”, the Kd is 3.41 nM in assay [1], 8.2 nM in assay [2] and 11.7 nM in assay [3].
